Measurements as given in patent US10821195B2, “Compositions for therapeutics, targeted PET imaging and methods of their use” (Memorial Sloan Kettering Cancer Center, priority 2015, dated 2020).

Key:
[1] = test system: BT474 cells; experiment: Immunoreactivity assay of ^89Zr-labeled trastuzumab complexes; assay type: cell-based; settings: 1 h incubation
Protocol: To calculate the immunoreactivity, ^89Zr-complexes were incubated with BT474 cells for 1 h (Table 10).
The treated cells were then pelleted via centrifugation (600 G for 2 min), aspirated, and washed twice with cold PBS before removing the supernatant and counting the activity associated with the cell pellet. The activity data were background-corrected and compared with the total number of counts in appropriate control samples. Immunoreactive fractions were determined by linear regression analysis of a plot of (total/bound) activity against (1/[normalized cell concentration]). No weighting was applied to the data, and data were obtained as n=3.

[2] = test system: BT474 xenografts; experiment: PET imaging of ^89Zr-trastuzumab radioimmunoconjugates in BT474 xenograft mice; assay type: in vivo, female, athymic nude mice; settings: imaged over 9 d
Protocol: PET imaging was carried out in order to directly compare the in vivo behavior and pharmacokinetics of DFO- and HOPO-based ^89Zr-trastuzumab radioimmunoconjugates. […] One aspect of this method is that sufficient time must elapse after administration of the bifunctional ligand-antibody complex to allow for unbound bifunctional ligand-antibody complex to clear the subject (e.g., by renal or fecal clearance). At that point, the bound bifunctional ligand-antibody complex can be appropriately imaged with high contrast due to the lack of noise that can be generated by unbound bifunctional ligand-antibody complexes. […] The generated image of the tumor can be used for gaining quantitative information about the tumor and/or one or more tumor cells present, such as its/their dimensions (e.g., size, volume), shape, or rate of growth or shrinkage. Additional information about one or more moiety expressions (e.g., protein expressions) of the tumor can also be gained based on whether association of one or more antibodies utilized in the composition occurs with one or more tumor cells in the subject. […]
PET imaging experiments were conducted on a microPET Focus 120. […] PET data for each mouse were recorded via static scans at various time points (n=4) between 6 h and 9 d. […] Images were analyzed using ASIPro VM software (Concorde Microsystems).

Substance	Immunoreactive Fraction [1] [%]	Immunoreactive Fraction ([1]; listed as 89Zr-DFO-Trastuzumab) [%]	bone uptake in PET images [2]	Immunoreactive Fraction ([1]; listed as 89Zr-HOPO-Trastuzumab) [%]
^89Zr-DFO-trastuzumab	88.6±2.1	88.6 ± 2.1	evidence of bone uptake	
^89Zr-HOPO-trastuzumab	92.4±6.8		very low bone uptake	92.4 ± 6.8
